EC50 data for one compound are collected here from patent US11230556B2 (Merck Sharp & Dohme Corp., priority 2016, dated 2022).

Chains of the proteins cited; added tags and fusions are not shown.
UniProt P08173, whole entry: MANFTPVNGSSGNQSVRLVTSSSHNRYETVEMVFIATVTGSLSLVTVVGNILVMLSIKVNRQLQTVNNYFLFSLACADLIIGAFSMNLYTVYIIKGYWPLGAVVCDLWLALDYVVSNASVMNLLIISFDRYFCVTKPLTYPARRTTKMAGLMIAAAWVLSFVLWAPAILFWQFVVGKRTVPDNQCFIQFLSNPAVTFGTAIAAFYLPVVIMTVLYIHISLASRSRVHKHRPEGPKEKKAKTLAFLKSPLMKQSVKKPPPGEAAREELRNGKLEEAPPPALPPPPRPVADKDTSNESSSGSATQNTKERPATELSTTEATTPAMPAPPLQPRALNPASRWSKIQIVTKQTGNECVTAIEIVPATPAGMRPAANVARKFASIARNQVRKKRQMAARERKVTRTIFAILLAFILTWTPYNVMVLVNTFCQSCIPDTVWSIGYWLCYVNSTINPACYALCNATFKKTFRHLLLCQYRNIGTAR

The target of the test is human M4 muscarinic acetylcholine receptor (Homo sapiens, UniProt P08173). Nature of the test: human FLIPR-based M4 PAM assay (CHO-K1 cells with human M4 receptor and Gαqi5, calcium dye fluorescence, acetylcholine at 20% of maximum response). Particulars: read-out: M4 PAM IP, inflection point (IP) of 4 parameter logistic dose response curve, human M4 receptor + Gαqi5, FLIPR Tetra. The procedure:
In a typical experiment the M4 muscarinic acetylcholine receptor modulating activity of the compounds of the present invention was determined in accordance with the following experimental method. CHO-K1 cells stably transfected with human M4 receptor and chimeric G-protein Gαqi5 (Coward P, et al., Analytical Biochemistry, 270:242-248 (1999)) are thawed from liquid N2 storage, resuspended in growth medium, plated in black, clear bottom 384 well plates, and incubated 16-20 hours at 37° C., 5% CO2. On the day of assay, growth medium is removed, the cells are washed 2 times with wash buffer, and cells are incubated in dye loading buffer at 37° C., 5% CO2 for ˜1 hour. Following dye loading the cell plates are placed in a FLIPR Tetra instrument and while monitoring dye fluorescence (excitation […]), 10 uL of test substance at increasing concentrations is added, and fluorescence values are recorded for 4 min. Next, 10 uL of acetylcholine is added (final concentration calculated so as to achieve 20% of the maximum acetycholine response), and the fluorescence reading is continued for 3.5 min. In some cases, a third addition of acetylcholine (final concentration calculated to achieve 70% of the maximal acetylcholine response) is performed. […]

Molecules are shown by their SMILES. pEC50: −log10 of the molar value.

Consider `COc1ccc(OC2CCN(c3nc4cnc(C(F)(F)F)n4cc3C)CC2)cn1`, for which the pEC50 is 6.54.
